Data on three compounds can be found in patent US20260092070A1, “INHIBITORS OF CANINE JANUS KINASE AND USES THEREOF” (ANIMOL DISCOVERY, INC., priority 2023, published 2026).

Sequences of proteins named here, by UniProt entry; tags and fusion partners are left off. A change or cut given only in a name is not applied to a line headed by its entry.
UniProt P23458: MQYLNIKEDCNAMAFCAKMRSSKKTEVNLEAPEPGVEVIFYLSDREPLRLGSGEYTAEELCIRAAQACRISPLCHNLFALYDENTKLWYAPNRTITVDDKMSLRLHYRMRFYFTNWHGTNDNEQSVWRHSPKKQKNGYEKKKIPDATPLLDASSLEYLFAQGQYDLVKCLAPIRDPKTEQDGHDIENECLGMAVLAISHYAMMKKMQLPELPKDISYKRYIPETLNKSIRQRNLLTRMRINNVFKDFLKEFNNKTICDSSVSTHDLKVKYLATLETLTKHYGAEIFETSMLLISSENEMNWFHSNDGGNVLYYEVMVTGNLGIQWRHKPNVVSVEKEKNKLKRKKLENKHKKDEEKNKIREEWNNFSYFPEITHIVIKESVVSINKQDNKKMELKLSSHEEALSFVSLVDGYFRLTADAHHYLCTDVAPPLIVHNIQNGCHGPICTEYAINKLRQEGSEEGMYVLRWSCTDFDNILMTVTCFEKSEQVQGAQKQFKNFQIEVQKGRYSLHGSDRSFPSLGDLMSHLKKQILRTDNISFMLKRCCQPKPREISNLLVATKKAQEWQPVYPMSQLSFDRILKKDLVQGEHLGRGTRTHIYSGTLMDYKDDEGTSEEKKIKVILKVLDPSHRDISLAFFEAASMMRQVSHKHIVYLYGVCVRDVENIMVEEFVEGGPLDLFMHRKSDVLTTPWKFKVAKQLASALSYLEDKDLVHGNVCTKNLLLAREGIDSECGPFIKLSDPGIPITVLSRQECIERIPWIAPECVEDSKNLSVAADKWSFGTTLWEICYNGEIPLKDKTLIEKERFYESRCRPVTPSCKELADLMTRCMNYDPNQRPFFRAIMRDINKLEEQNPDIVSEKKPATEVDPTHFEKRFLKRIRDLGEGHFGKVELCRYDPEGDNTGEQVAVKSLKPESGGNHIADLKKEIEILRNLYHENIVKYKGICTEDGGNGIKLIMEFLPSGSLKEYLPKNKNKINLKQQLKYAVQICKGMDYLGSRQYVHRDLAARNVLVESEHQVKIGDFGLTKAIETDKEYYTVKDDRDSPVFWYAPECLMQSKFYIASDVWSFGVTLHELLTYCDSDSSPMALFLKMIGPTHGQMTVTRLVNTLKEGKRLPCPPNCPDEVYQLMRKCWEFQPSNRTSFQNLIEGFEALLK

For this assay, the target named is JAK-1 (Homo sapiens, UniProt P23458). Nature of the assay: JAK enzymatic assay (Eurofins KinaseProfiler/IC50Profiler, radiometric), JAK-1. As to conditions: for JAK1/JAK2 selectivity: selectivity IC50 ratio for JAK1 versus JAK2, human enzymes.

Consider `COc1cc(NC(=O)CN2CCN(c3ncnc4[nH]ccc34)CC2)ccc1S(=O)(=O)N(C)C` [Compound 1, 2-(4-(7H-pyrrolo[2,3-d]pyrimidin-4-yl)piperazin-1-yl)-N-(4-(N, N-dimethylsulfamoyl)-3-methoxyphenyl) acetamide], for which the JAK1/JAK2 selectivity is given as above 20.

Regarding `CN(C)S(=O)(=O)c1ccc(NC(=O)CN2CCN(c3ncnc4[nH]ccc34)CC2)cc1F` [Compound 5, 2-(4-(7H-pyrrolo[2,3-d]pyrimidin-4-yl)piperazin-1-yl)-N-(4-(N,N-dimethylsulfamoyl)-3-fluorophenyl)acetamide], the JAK1/JAK2 selectivity is given as above 38.

For orientation: IC50 means the concentration that inhibits the measured activity by half. Read a low IC50 as inhibition by little substance. Regarding `CN(C)S(=O)(=O)c1ccc(NC(=O)CN2CCN(c3ncnc4[nH]ccc34)CC2)cc1Cl` [Compound 6, 2-(4-(7H-pyrrolo[2,3-d]pyrimidin-4-yl)piperazin-1-yl)-N-(3-chloro-4-(N,N-dimethylsulfamoyl)phenyl)acetamide], the IC50 is below 250 nM and the JAK1/JAK2 selectivity came to 62.
